The values that follow come from patent publication US4521428A, “Anorexigenic trifluoromethylphenyltetrahydropyridines and pharmaceutical compositions containing them” (Sanofi, priority 1982, dated 1985).

Data set [1] is described as follows: acute toxicity in the rat (LD50) by the oral or intraperitoneal route. To be noted: in vivo, read-out: A/B (LD50/ID50, therapeutic index). The text has this:
the acute toxicity, expressed as LD50 in the rat by the oral or intraperitoneal route (A);
the ratio between the acute toxicity and the anorectic activity which expresses the therapeutic index related to the acute toxicity (A/B).

The subject of a further data set is serotonin uptake. The note with it: cited from earlier work.

Where two headings read alike, the source gives them in different places.

Regarding `CCNC(C)Cc1cccc(C(F)(F)F)c1` (stereo not drawn) [Fenfluramine, reference compound], the selectivity ratio in data set [1] (ip) stood at 64.6; in data set [1] (os) it was 92. The “serotonin uptake (background)” value with serotonin uptake is “inhibition of the serotonin uptake”.
